{"source": "paper PMC7744439", "about": "(European journal of medicinal chemistry, 2020)", "origin": "cited, not measured here", "system": "total HDACs", "conditions": "read-out: Total HDAC (IC50); cited from earlier work", "data": [{"compound": "CC(/C=C/C(=O)NO)=C\\[C@@H](C)C(=O)c1ccc(N(C)C)cc1", "note": "[TSA (9), reference compound]", "values": [{"measurement": "IC50", "value": 4, "unit": "nM"}]}]}
